Test results from US9422357B2, “Glycosylated polypeptide and drug composition containing said polypeptide” (priority 2011, dated 2016).

Amino acid sequences for entries named in this document (tags omitted). A change or cut given only in a name is not applied to a line headed by its entry.
UniProt P30872, whole entry, species assumed: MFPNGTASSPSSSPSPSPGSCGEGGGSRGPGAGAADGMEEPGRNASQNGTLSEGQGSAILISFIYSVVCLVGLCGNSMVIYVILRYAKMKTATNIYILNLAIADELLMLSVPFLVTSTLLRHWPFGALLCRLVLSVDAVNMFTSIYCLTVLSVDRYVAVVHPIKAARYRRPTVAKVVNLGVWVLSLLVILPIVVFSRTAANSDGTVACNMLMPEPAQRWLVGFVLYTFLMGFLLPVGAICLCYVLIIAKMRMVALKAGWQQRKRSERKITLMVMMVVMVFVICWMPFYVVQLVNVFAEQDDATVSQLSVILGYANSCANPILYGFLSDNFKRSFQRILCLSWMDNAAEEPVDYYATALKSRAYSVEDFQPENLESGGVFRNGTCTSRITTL
UniProt P35346: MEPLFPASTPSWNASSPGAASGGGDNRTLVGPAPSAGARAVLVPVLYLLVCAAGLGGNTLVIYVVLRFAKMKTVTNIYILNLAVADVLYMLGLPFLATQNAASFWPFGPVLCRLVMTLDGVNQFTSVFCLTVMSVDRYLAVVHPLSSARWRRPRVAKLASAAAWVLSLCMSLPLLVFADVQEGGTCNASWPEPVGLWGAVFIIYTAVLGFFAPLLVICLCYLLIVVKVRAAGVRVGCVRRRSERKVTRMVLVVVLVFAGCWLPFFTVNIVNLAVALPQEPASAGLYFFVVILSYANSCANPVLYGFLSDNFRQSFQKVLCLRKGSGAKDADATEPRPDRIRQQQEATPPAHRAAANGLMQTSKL
UniProt P31391: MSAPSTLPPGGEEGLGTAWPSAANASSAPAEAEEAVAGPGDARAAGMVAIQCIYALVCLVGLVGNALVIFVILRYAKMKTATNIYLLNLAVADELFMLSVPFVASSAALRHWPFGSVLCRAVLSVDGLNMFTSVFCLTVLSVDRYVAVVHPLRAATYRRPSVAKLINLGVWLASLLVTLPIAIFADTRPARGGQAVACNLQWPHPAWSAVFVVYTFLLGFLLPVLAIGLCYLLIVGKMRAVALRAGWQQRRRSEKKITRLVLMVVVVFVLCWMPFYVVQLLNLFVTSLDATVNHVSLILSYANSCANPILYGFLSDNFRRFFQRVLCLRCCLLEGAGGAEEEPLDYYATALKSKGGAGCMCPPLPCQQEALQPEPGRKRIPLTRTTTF
UniProt P30874: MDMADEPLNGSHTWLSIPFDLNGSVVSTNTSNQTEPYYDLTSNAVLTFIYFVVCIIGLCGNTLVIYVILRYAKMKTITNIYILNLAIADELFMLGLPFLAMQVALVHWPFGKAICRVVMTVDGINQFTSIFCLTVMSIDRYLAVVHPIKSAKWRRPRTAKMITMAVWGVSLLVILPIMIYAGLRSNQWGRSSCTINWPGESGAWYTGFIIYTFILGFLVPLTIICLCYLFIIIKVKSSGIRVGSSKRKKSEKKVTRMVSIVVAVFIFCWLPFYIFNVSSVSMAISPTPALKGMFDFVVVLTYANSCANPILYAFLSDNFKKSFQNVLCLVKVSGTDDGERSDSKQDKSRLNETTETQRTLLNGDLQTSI
UniProt P32745: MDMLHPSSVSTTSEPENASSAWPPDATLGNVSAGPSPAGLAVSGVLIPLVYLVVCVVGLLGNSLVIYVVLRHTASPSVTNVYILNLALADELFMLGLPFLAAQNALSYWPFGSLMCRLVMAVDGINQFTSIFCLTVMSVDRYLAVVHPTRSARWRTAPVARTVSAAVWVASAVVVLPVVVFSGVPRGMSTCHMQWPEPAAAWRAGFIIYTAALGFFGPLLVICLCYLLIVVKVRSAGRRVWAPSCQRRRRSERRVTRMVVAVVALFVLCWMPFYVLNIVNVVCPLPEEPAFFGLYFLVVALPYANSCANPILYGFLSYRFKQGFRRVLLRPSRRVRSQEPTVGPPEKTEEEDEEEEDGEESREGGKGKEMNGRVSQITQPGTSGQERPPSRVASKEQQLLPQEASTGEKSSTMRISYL

Legend:
[1] = biological target: T1, SSTR1 (Homo sapiens, UniProt P30872); experiment: cAMP production suppression (agonist activity), SSTR1 receptor expression cells; assay type: cell-based; details: read-out: IC50 of the agonist activity, SSTR1; Table 3E, Example 67-4
[2] = biological target: SSTR5 (Homo sapiens, UniProt P35346); experiment: Competitive binding assay, SSTR5; details: for Ki: read-out: Ki value against SSTR5, Example 67-2 (text on Table 3B)
[3] = biological target: T1, SSTR1; experiment: Competitive binding assay, SSTR1
[4] = biological target: SSTR4 (Homo sapiens, UniProt P31391); experiment: Competitive binding assay, SSTR4; details: for Ki: Example 67-2 (text on Table 3B), read-out: Ki value against SSTR4
[5] = biological target: SSTR2 (Homo sapiens, UniProt P30874); experiment: Competitive binding assay, SSTR2
[6] = biological target: SSTR3 (Homo sapiens, UniProt P32745); experiment: Competitive binding assay, SSTR3; details: for Ki: read-out: Ki value against SSTR3, Example 67-2 (text on Table 3B)
[7] = Pharmacokinetics test with rats (intravenous and subcutaneous administration); details: rat; for extension of t1/2 compared to the non-glycosylated form / increase of AUC compared to the non-glycosylated form: administered intravenously, versus SRIF28 or SRIF14
[8] = read-out: Ki value against SSTR1, Example 67-2 (text on Table 3B)
[9] = read-out: Ki value against SSTR2, Example 67-2 (text on Table 3B)
[10] = Tables 5B-5F, intravenous, no unit printed in these tables (Table 5A footnote: nM)
[11] = Tables 5B-5F, intravenous, no unit printed in these tables (Table 5A footnote: min)
[12] = Tables 5B-5F, subcutaneous, no unit printed in these tables (Table 5A footnote: min)

| Substance | Ki [2] [nM] | Ki [3, 8] [nM] | Ki [4] [nM] | Ki [5, 9] [nM] | Ki [6] [nM] | extension of t1/2 compared to the non-glycosylated form [7] | increase of AUC compared to the non-glycosylated form [7] | also measured |
| --- | --- | --- | --- | --- | --- | --- | --- | --- |
| S1C(Asn(disialo))-SRIF28 [Example 63] | – | – | – | – | – | – | – | IC50 [1]: 2 nM |
| S1C(diMan)-SRIF28 [Example 51] | 0.31 to 95 | 1.46 to 100 | 1.39 to 59 | 0.0536 to 6.51 | 0.16 to 7.44 | – | – | – |
| S1-2C(disialo(Bn))-SRIF28 [Example 62] | 0.31 to 95 | 1.46 to 100 | 1.39 to 59 | 0.0536 to 6.51 | 0.16 to 7.44 | 6-21 folds | 6-12 folds | – |
| Biotin-S1C(disialo)-SRIF28 [Example 44] | – | – | – | – | – | – | – | Ki ([3]; read-out: SSTR1 Ki, Table 3B, Example 67-2): 3.05 nM |
| S1-4C(disialo)-SRIF28 [Example 66] | 0.31 to 95 | 1.46 to 100 | 1.39 to 59 | 0.0536 to 6.51 | 0.16 to 7.44 | 48 folds | 15 folds | – |
| 3C(disialo)-R-K-SRIF14 [Example 49] | – | – | – | – | – | 71 folds | 36 folds | Ki value against SSTR4 as folds that of SRIF14 ([4]; Example 67-2): ≥ 46 folds |
| S1C(disialo(aminoethylamide))-SRIF28 [Example 57] | 0.31 to 95 | 1.46 to 100 | 1.39 to 59 | 0.0536 to 6.51 | 0.16 to 7.44 | 11-14 folds | 7-12 folds | Ki ([5]; read-out: SSTR2 Ki, Table 3B, Example 67-2): 0.536 nM |
| C(disialo)-K-SRIF14 [Example 40] | 0.31 to 95 | 1.46 to 100 | 1.39 to 59 | 0.0536 to 6.51 | 0.16 to 7.44 | 33-38 folds | 44-55 folds | – |
| T26C(disialo)-SRIF28 [Example 12] | – | – | – | – | – | – | – | Ki value against SSTR5 as folds that of SRIF14 ([2]; Example 67-2): 280-1600 folds; Ki value against SSTR2 as folds that of SRIF14 ([5]; Example 67-2): 280-1600 folds |
| F25C(disialo)-SRIF28 [Example 38] | – | – | – | – | – | – | – | Ki value against SSTR1 as folds that of SRIF14 ([3]; Example 67-2): 310-5300 folds; Ki value against SSTR2 as folds that of SRIF14 ([5]; Example 67-2): 310-5300 folds; Ki value against SSTR3 as folds that of SRIF14 ([6]; Example 67-2): 310-5300 folds |
| S1C(asialo)-SRIF28 [Example 27] | 0.31 to 95 | 1.46 to 100 | 1.39 to 59 | 0.0536 to 6.51 | 0.16 to 7.44 | 10 folds | 10 folds | – |
| S1C(disialo(amide))-SRIF28 [Example 58] | 0.31 to 95 | 1.46 to 100 | 1.39 to 59 | 0.0536 to 6.51 | 0.16 to 7.44 | 11-14 folds | 7-12 folds | – |
| 2C(disialo)-R-K-SRIF14 [Example 48] | 0.31 to 95 | 1.46 to 100 | 1.39 to 59 | 0.0536 to 6.51 | 0.16 to 7.44 | 63 folds | 42 folds | – |
| C(disialo(aminoethylamide))/S1C(disialo)-SRIF28 [Example 65] | – | – | – | – | – | 6-21 folds | 6-12 folds | C0, intravenous administration [7, 10]: 518 |
| S1-3C(asialo)-SRIF28 [Example 29] | – | – | – | – | – | 5 folds | 6 folds | – |
| S1C(tetrasialo)-SRIF28 [Example 56] | – | – | – | – | – | – | – | AUC, intravenous administration ([7]; Tables 5B-5F, intravenous, no unit printed in these tables (Table 5A footnote: min · nM)): 4851; MRT, intravenous administration [7, 11]: 23.0; T1/2, intravenous administration [7, 11]: 20.9; C0, intravenous administration [7, 10]: 471; BA, subcutaneous administration ([7]; Tables 5B-5F, subcutaneous, no unit printed in these tables (Table 5A footnote: %)): 54; AUC, subcutaneous administration ([7]; Tables 5B-5F, subcutaneous, no unit printed in these tables (Table 5A footnote: min · nM)): 2624; MRT, subcutaneous administration [7, 12]: 59.4; T1/2, subcutaneous administration [7, 12]: 40.5; Cmax, subcutaneous administration ([7]; Tables 5B-5F, subcutaneous, no unit printed in these tables (Table 5A footnote: nM)): 32.2 |
| S1C(GlcNAc)-SRIF28 [Example 53] | 0.31 to 95 | 1.46 to 100 | 1.39 to 59 | 0.0536 to 6.51 | 0.16 to 7.44 | – | – | – |
| S1-2C(disialo(amide))-SRIF28 [Example 61] | 0.31 to 95 | 1.46 to 100 | 1.39 to 59 | 0.0536 to 6.51 | 0.16 to 7.44 | 6-21 folds | 6-12 folds | – |
| C(disialo)-C12 linker-SRIF14 [Example 19] | – | – | – | – | – | 22-33 folds | 14-30 folds | – |
| S1C(disialo(Bn))-SRIF28 [Example 59] | 0.31 to 95 | 1.46 to 100 | 1.39 to 59 | 0.0536 to 6.51 | 0.16 to 7.44 | 11-14 folds | 7-12 folds | – |
| C(disialo)-PEG linker-SRIF14 [Example 43] | – | – | – | – | – | 22-33 folds | 14-30 folds | – |
| S1C(diGlcNAc)-SRIF28 [Example 50] | 0.31 to 95 | 1.46 to 100 | 1.39 to 59 | 0.0536 to 6.51 | 0.16 to 7.44 | – | – | – |

Like-named read-outs stand apart in the source and are kept apart here.
